The target in one experiment is GlyT2 (Rattus norvegicus, UniProt P58295). The experiment is described as follows: FLIPR membrane potential assay for GlyT2 target activity (T-rex-293-rGlyT2 cells). It is filed as cell-based. The settings on record: 10 uM compound, then glycine; relative to ORG25543 (500 nM) defined as 100%. The protocol:
GlyT2 (Glycine transporter type 2) is an electrogenic carrier associated with Na^+/Cl^− ion transportation, primarily distributed around the spinal cord part, and has an important role in the transfer of a pain signal in the spinal cord.
In order to identify the fact that the novel compound of the present invention has GlyT2 targeting activity, a membrane potential assay was performed. FLIPR Membrane Potential Assay is used to measure ion channel modulation caused by an increase or decrease in fluorescence signal due to variations of cellular membrane potential.
First, pcDNA4/TO vector encoding GlyT2 of the rat in HEK293 cell was transfected to prepare a stable recombinant cell line, i.e., T-rex-293-rGlyT2. A […] (Greiner #655090) coated with poly-D-lysine was prepared, and the above recombinant cells (T-rex-293-rGlyT2) were seeded at 3.2×10^4/well therein using a medium containing 15 μg/ml of tetracycline. After this, incubation was conducted at 37° C. for 48 hours under 5% CO2 conditions to express GlyT2. 10 ml of assay buffer (1×HBSS, 20 mM HEPES, pH 7.4) was added to a blue dye solution and sufficiently dissolved therein to prepare a membrane potential dye solution. After removing the medium from the well showing GlyT2 expression, the membrane potential dye solution was added to the well in an amount of 100 μl/well and incubated for 20 minutes.
According to the FLIPR Membrane Potential Assay kit's protocol, SoftMax Pro Software of FlexStation 3 software (Molecular Devices, US) was set up. An extent of GlyT2 expression was determined such that the extent of cellular membrane depolarization relative to an administered amount of glycine during glycine treatment is indicated in relative fluorescence units (RFU), and RFU (Max-Min) is calculated by subtracting the minimum value from the maximum value of RFU. After firstly treating 10 uM of the novel compound according to the present invention, glycine was treated and RFU (Max-Min) for glycine administration was determined. Then, with the determined result, the extent of depolarization inhibition (% inhibition) was assessed for each compound, compared to a positive control.
The positive control used herein was ORG25543 (500 nM) having strong inhibitory efficacy specific to GlyT2.
For GlyT2 inhibitory efficacy, the efficacy of the compound ORG25543 (500 nM) was defined as 100%. Similarly, for 5HT2A inhibitory efficacy, the efficacy of MDL11939 (100 nM) was defined as 100%. Therefore, the target inhibitory efficacy of each compound was indicated in a relative value compared to the above defined efficacy.

Amino acid sequences for entries named in this document (tags omitted). A change or cut given only in a name is not applied to a line headed by its entry.
UniProt P58295: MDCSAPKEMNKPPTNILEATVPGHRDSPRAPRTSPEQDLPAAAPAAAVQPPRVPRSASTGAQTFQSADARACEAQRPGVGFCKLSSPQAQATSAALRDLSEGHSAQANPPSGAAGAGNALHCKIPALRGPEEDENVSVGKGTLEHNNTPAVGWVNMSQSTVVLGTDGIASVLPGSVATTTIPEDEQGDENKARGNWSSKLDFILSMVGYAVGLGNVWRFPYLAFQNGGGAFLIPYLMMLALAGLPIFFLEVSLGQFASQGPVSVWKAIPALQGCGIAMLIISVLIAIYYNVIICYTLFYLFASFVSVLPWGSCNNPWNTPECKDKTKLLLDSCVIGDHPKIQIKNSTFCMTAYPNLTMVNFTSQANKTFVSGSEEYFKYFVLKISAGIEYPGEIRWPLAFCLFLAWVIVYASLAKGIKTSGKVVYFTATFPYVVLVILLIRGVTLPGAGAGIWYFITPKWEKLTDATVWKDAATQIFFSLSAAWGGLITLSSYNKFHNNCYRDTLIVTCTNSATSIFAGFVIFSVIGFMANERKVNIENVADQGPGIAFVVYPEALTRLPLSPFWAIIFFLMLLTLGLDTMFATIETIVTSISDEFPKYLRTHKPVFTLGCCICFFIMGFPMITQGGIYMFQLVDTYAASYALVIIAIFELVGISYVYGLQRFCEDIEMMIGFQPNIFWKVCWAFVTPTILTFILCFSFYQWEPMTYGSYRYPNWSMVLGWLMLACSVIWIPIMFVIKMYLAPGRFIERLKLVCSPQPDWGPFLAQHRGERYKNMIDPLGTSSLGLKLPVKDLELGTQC
UniProt P28223, whole entry, looked up: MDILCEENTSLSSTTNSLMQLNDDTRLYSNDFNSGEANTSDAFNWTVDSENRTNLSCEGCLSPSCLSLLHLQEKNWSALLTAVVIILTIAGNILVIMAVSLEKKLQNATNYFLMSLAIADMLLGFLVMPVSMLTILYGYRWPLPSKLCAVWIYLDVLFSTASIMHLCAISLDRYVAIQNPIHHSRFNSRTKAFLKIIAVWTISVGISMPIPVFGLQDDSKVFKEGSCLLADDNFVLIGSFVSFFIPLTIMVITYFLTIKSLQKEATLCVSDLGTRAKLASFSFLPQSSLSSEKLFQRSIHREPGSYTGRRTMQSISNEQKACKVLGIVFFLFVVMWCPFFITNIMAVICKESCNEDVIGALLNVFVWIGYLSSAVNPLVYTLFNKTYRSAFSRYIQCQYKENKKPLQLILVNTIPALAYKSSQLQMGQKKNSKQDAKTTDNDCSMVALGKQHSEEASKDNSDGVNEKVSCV

A further experiment has as its target 5HT2A (Homo sapiens, UniProt P28223). Briefly: FLIPR calcium assay for 5HT2A target activity (transfected HEK293 cells). As to conditions: 10 uM compound, then serotonin; relative to MDL11939 (100 nM) defined as 100%. It is filed as cell-based.

The record followed here is patent US9359346B2, “Benzamide derivative and use thereof” (VIVOZON, INC., priority 2011, dated 2016).

For `CCCCOc1ccc(C(=O)NCC2(N3CCN(C)CC3)CCCCC2)cc1`, the GlyT2 % inhibition at GlyT2 turned out to be 42.2%. Also, the 5HT2A % inhibition on 5HT2A is reported as 121.4%.
In the same order, the values of `CCCCOc1ccc(C(=O)NCC2(N(C)C)CCC(F)(F)CC2)cc1` are 59.3% and 77.0%.
Taken in the same sequence, the figures for `CCCCOc1c(C)cc(C(=O)NCC2(N(C)C)CCC(F)(F)CC2)cc1C` were 101.9% and 56.1%.
In the same order, the values of `CN(C)C1(CNC(=O)c2ccc(OCc3ccccc3)cc2)CCC(F)(F)CC1` are 96.0% and 113.0%.
